Experimental data as given in EP0415456A2, “Xanthine compounds” (priority 1989, dated 1991).

The chains behind the UniProt entries cited, without tags or fusion partners.
UniProt P47745, whole entry: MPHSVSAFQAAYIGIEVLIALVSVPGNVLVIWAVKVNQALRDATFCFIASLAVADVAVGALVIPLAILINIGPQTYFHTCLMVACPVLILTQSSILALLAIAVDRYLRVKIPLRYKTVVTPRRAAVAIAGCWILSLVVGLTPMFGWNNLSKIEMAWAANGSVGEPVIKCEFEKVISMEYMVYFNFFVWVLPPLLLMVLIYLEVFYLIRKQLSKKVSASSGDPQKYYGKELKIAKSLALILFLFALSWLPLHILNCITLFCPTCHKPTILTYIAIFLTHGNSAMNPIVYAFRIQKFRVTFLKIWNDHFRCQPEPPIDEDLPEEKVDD

Target: T1, Adenosine A₁ Receptor (Cavia porcellus, UniProt P47745)
T1 construct: Cerebrum of a guinea pig was suspended; from tissue; host or cells: guinea pig cerebrum membrane preparation
Assay: Adenosine A1 receptor binding (3H-CHA binding)
Set-up: species or system guinea pig
Details: for inhibition at 10 µM / inhibition at 100 µM: read-out: A₁ Receptor Inhibition (%)

SMILES | Ki (calculated from Cheng-Prusoff's equation, ³H-CHA, guinea pig cerebrum) [µM] | inhibition at 10 µM [%] | inhibition at 100 µM [%]
Cn1c(=O)c2[nH]cnc2n(C)c1=O [Theophylline, 1,3-dimethylxanthine, reference compound] | 23 | 33 | 74
Nc1nc2ccc(Cl)cc2c2nc(-c3ccco3)nn12 [CGS 15943, reference compound] |  | 99 | 96
